Source: patent US4225611A, “Novel n-substituted benzenesulfonamide, process for its preparation and medicaments containing it” (Choay S.A., priority 1977, dated 1980)

Test: in vivo
Details: mouse

CCN1CCCC1CNS(=O)(=O)c1cc(Cl)c(N)cc1OC (centres unmarked) [(I), chloro-5 methoxy-2 amino-4 N-(N-ethyl methyl-2 pyrrolidino) benzenesulfonamide]
LD50 (iv): 130 mg/kg | LD50 (po): 1000 mg/kg
